Laboratory results taken from patent US20130310310A1.

Biological target: GLP-1 receptor

[Cys^37(mPEG5000-MAL)] Exendin-4 (peptide)
EC50 (nM), GLP-1 receptor agonistic activity (CRE-luciferase reporter in HEK293 cells): 1.76 nM
